{"sequences": {"note": "Sequences of proteins named here, by UniProt entry; tags and fusion partners are left off.", "UniProt P09923, whole entry": "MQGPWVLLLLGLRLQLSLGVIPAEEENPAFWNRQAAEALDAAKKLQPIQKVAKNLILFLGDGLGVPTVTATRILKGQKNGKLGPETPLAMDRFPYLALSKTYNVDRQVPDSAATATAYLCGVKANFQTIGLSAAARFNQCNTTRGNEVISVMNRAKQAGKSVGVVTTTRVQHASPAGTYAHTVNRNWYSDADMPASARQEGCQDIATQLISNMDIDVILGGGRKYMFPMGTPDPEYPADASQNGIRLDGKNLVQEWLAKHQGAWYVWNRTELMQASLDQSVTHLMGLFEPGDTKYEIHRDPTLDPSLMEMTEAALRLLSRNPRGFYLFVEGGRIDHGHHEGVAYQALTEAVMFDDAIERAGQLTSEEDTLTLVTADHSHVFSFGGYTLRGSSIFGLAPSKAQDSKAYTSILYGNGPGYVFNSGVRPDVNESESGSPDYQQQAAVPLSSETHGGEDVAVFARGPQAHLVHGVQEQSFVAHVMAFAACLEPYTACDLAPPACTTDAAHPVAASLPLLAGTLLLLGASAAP"}, "source": "PubChem BioAssay AID434926", "about": "(Sanford-Burnham Center for Chemical Genomics, 2010)", "target": "Intestinal-type alkaline phosphatase (Homo sapiens) (UniProt P09923)", "test": "human IAP activators, confirmation, biochemical, luminescence, single concentration, uHTS hits (AID 434926)", "conditions": "purified IAP, CDP-Star luminescence, 30 min; at 8.3 µM; stronger effect = lower value", "note": "The entries are a selection whose mix differs from that of the whole data set. The source made the active and inactive calls.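 How the source made its calls: active means at least twofold enzyme activation in any of six single-dose repeats, which the averaged readout prints as negative percent; inactive means the rest.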"}
{"compound": "COc1ccc(OP(C)(=O)Nc2ccc(Br)cc2)cc1", "note": "(stereo unspecified)", "values": [{"measurement": "activation (%Activity, negative = activation)", "result": "inactive: -23.8%"}]}
